# Test system: Melanocortin receptor 1 (Homo sapiens)
# Experiment: Inhibition of human MC1 receptor at 10 uM
row,inhibition [%],Compound
1,38,CC(C)CC(N)c1ccccc1N1CCN(C(=O)[C@@H](Cc2ccc(Cl)cc2Cl)NC(=O)CCN)CC1 (some centres not stated)
2,24,CC(C)CC(O)c1ccccc1N1CCN(C(=O)[C@@H](Cc2ccc(Cl)cc2Cl)NC(=O)CCN)CC1 (some centres not stated)
